# In PubChem BioAssay AID720511 (Broad Institute, 2013):
# This is a selection; strong and weak results do not stand in their true shares. Activity calls are given as the source filed them.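 The calls were made as follows: active = mean added fluorescence quench of at least 8% versus neutral control, with both replicates also reaching 8%; inconclusive = only one of the mean or replicate conditions met; inactive = mean below 8% and not both replicates reaching 8%.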
# Assay: F508del CFTR correction, initial screen, CFBE line, single point (AID 720511);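 also: corrector assay measuring rescue of mutant channel to the surface after 24 h compound exposure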
# Settings: CFBE cells, YFP halide quenching, at 7.58 µM, stronger effect = higher value, % fluorescence drop versus neutral controls, stimulated with forskolin plus potentiator P3
row,Compound,activity (quench increase)
1,Cc1cc(C)cc(N(C(=O)c2ccccc2)C2CCN(C(=O)OC(C)(C)C)CC2)c1,inactive: 0.773%
2,O=C(NCC1(N2CCCCC2)CCCCC1)c1ccc(Cl)nc1,inactive: -2.73%
3,O=c1[nH]c2ccccc2n1C1CCN(C(c2ccccc2OC(F)(F)F)c2nnnn2C2CCCCC2)CC1 (stereo not drawn),inactive: 3.52%
4,CCCCn1nnnc1C(c1ccc(OC)cc1)N1CCC(n2c(=O)[nH]c3ccccc32)CC1 (stereo not drawn),inactive: 2.89%
5,CCOC(=O)N1CCC(Nc2ccc(OC)cc2)CC1,inactive: 2.47%
6,COc1ccc(Cl)cc1C(=O)NCC1(N2CCOCC2)CCCCC1,inactive: -1.98%
7,O=C(NCC1(N2CCCCC2)CCCCC1)c1ccc(Cl)s1,inactive: 2.32%
8,N#CC1(Nc2ccccc2)CCN(Cc2ccccc2)CC1,inactive: 0.342%
9,O=C(OC1CN2CCC1CC2)C1c2ccccc2Oc2ccccc21 (stereo not drawn),inactive: -0.525%
10,O=c1[nH]c2ccccc2n1C1CCN(C(c2cc3ccccc3o2)c2nnnn2C2CCCCC2)CC1 (stereo not drawn),inactive: -4.54%
11,CCCCn1nnnc1C(CC)N1CCC(n2c(=O)[nH]c3ccccc32)CC1 (stereo not drawn),inactive: 3.8%
12,O=C(NCC1(N2CCCCC2)CCCCC1)c1cccs1,inactive: -4.97%
13,CCCCn1nnnc1C(c1cccs1)N1CCC(n2c(=O)[nH]c3ccccc32)CC1 (stereo not drawn),inactive: 0.865%
14,O=C(NCC1(N2CCCCC2)CCCCC1)c1ccc(=O)[nH]c1,inactive: -1.31%
15,COc1ccc(C(=O)NCC2(N3CCCCC3)CCCCC2)c(OC)c1OC,inactive: -0.34%
16,CC(C)(C)OC(=O)N1CCC(N(C(=O)c2ccccc2)c2ccc(F)cc2)CC1,inactive: 2.63%
17,CCC(c1nnnn1C1CCCC1)N1CCC(n2c(=O)[nH]c3ccccc32)CC1 (stereo not drawn),inactive: 0.383%
18,COc1ccc(C(=O)NCC2(N3CCCCC3)CCCCC2)cc1,inactive: -1.98%
19,Cc1cccc(NC2(C#N)CCN(Cc3ccccc3)CC2)c1,inactive: 0.42%
20,CSc1ccccc1C(=O)NCC1(N2CCCCC2)CCCCC1,inactive: 0.27%
21,O=c1[nH]c2ccccc2n1C1CCN(C(c2ccccc2)c2nnnn2C2CCCCC2)CC1 (stereo not drawn),inactive: 2.18%
22,O=c1[nH]c2ccccc2n1C1CCN(C(c2cccc3ccccc23)c2nnnn2C2CCCC2)CC1 (stereo not drawn),inactive: 2.03%
23,CCOC(=O)N1CCC(Nc2cccc(C)c2)CC1,inactive: 2.85%
24,COc1cc(C(=O)NCC2(N(C)C)CCCCC2)ccc1OC(F)F,inactive: 1.25%
25,CCOc1ccc(C)cc1CN(CCCl)CCCl,inactive: 3.32%

row,Compound,activity (quench increase)
1,O=C1CCN(Cc2ccccc2)CC1,inactive: 0.824%
2,CC(C)(C)n1nnnc1C(c1ccccc1)N1CCC(n2c(=O)[nH]c3ccccc32)CC1 (stereo not drawn),inactive: 0.271%
3,CCOC(=O)N1CCC(Nc2ccc(F)cc2)CC1,inactive: -2.08%
4,CCCCn1nnnc1C(c1cc2ccccc2o1)N1CCC(n2c(=O)[nH]c3ccccc32)CC1 (stereo not drawn),inactive: -0.497%
5,O=P1(N(CCCl)CCCl)SCCCS1,inactive: -2.7%
6,CCCCOc1ccc(C(=O)NCC2(N3CCOCC3)CCCCC2)cc1,inactive: -1.9%
7,O=C(NCC1(N2CCCCC2)CCCCC1)c1ccc(F)cc1,inactive: -2.94%
8,O=C(NCC1(N2CCCCC2)CCCCC1)c1cccc(C(F)(F)F)c1,inactive: -2.45%
9,CN1CCN(CCOC(=O)C(O)(c2ccccc2)c2ccccc2)CC1,inactive: -1.24%
10,COc1ccc(NC2CCN(C(=O)OC(C)(C)C)CC2)cc1,inactive: -0.053%
11,CC(C)c1ccc(C(=O)NCC2(N3CCOCC3)CCCCC2)cc1,inactive: 4.59%
12,CCCCn1nnnc1C(c1cccc2ccccc12)N1CCC(n2c(=O)[nH]c3ccccc32)CC1 (stereo not drawn),inactive: -1.12%
13,COc1cc(C(=O)NCC2(N3CCCCC3)CCCCC2)ccc1OC(F)F,inactive: 0.825%
14,O=C(NCC1(N2CCCCC2)CCCCC1)c1ccc(OC(F)F)cc1,inactive: -0.181%
15,CC(C)(C)n1nnnc1C(c1ccccc1OC(F)(F)F)N1CCC(n2c(=O)[nH]c3ccccc32)CC1 (stereo not drawn),inactive: -2.9%
16,O=C(NCC1(N2CCCCC2)CCCCC1)c1cccc([N+](=O)[O-])c1,inactive: -1.06%
17,CSc1ccc(C(=O)NCC2(N3CCOCC3)CCCCC2)cc1,inactive: 0.167%
18,O=c1[nH]c2ccccc2n1C1CCN(C(c2ccccc2OC(F)(F)F)c2nnnn2C2CCCC2)CC1 (stereo not drawn),inactive: -1.97%
19,CCN1CCC(Nc2ccc(Cl)cc2)CC1,inactive: -1.91%
20,CN1CCC(Nc2cccc(F)c2)CC1,inactive: 0.071%
21,O=C(NCC1(N2CCCCC2)CCCCC1)c1cncc(Br)c1,inactive: -4.72%
22,CCCOc1ccc(C(=O)NCC2(N(C)C)CCCCC2)cc1OC,inactive: -4.22%
23,Cc1ccc(C(=O)NCC2(N(C)C)CCCCC2)o1,inactive: 0.534%
24,COc1ccc(C(c2nnnn2C2CCCC2)N2CCC(n3c(=O)[nH]c4ccccc43)CC2)cc1 (stereo not drawn),inactive: 0.852%
25,CN(C)c1cccc(C(=O)NCC2(N3CCCCC3)CCCCC2)c1,inactive: -0.693%

row,Compound,activity (quench increase)
1,COc1ccc(CN(CCCl)CCCl)cc1Cl,inactive: -3.29%
2,CC(C)c1ccc(NC2CCN(C(=O)OC(C)(C)C)CC2)cc1,inactive: 6.05%
3,CCCCn1nnnc1C(c1ccnc2ccccc12)N1CCC(n2c(=O)[nH]c3ccccc32)CC1 (stereo not drawn),inactive: -1.54%
4,CCC(c1nnnn1C(C)(C)C)N1CCC(n2c(=O)[nH]c3ccccc32)CC1 (stereo not drawn),inactive: 1%
5,O=C(NCC1(N2CCOCC2)CCCCC1)c1cc(F)c(F)cc1Cl,inactive: 4.27%
6,COc1cc(OC)c(C(=O)NCC2(N(C)C)CCCCC2)cc1OC,inactive: -0.532%
7,CCOC(=O)N1CCC(Nc2ccc(C)cc2)CC1,inactive: -0.106%
8,COc1cccc(C(c2nnnn2C(C)(C)C)N2CCC(n3c(=O)[nH]c4ccccc43)CC2)c1OC (stereo not drawn),inactive: 1.65%
9,CCCCn1nnnc1C(c1cccc(OC)c1OC)N1CCC(n2c(=O)[nH]c3ccccc32)CC1 (stereo not drawn),inactive: 1.93%
10,O=c1[nH]c2ccccc2n1C1CCN(C(c2cccs2)c2nnnn2C2CCCC2)CC1 (stereo not drawn),inactive: -0.398%
11,O=C(NCC1(N2CCOCC2)CCCCC1)c1cc(Br)ccc1Cl,inactive: -2.26%
12,COc1cc(C(=O)NCC2(N3CCOCC3)CCCCC2)cc(OC)c1C,inactive: 4.09%
13,CCCCn1nnnc1C(c1ccccc1)N1CCC(n2c(=O)[nH]c3ccccc32)CC1 (stereo not drawn),inactive: -0.486%
14,O=c1[nH]c2ccccc2n1C1CCN(C(c2ccnc3ccccc23)c2nnnn2C2CCCC2)CC1 (stereo not drawn),inactive: 2.64%
15,COc1ccc(C(=O)NCC2(N3CCOCC3)CCCCC2)cc1OC,inactive: 0.604%
16,O=c1[nH]c2ccccc2n1C1CCN(C(c2cccs2)c2nnnn2C2CCCCC2)CC1 (stereo not drawn),inactive: -3.32%
17,O=c1[nH]c2ccccc2n1C1CCN(C(c2ccccc2)c2nnnn2C2CCCC2)CC1 (stereo not drawn),inactive: 0.131%
18,CCCN1CCC(Nc2cc(OC)cc(OC)c2)CC1,inactive: 1.03%
19,Cc1cc(N(CCCl)CCCl)ccc1C=O,inactive: 2.67%
20,C/C(N)=N\P(=O)(Oc1ccccc1)Oc1ccccc1,inactive: -0.017%
21,CN(C)C1(CNC(=O)c2cccc(C#N)c2)CCCCC1,inactive: 1.12%
22,CC(C)(C)n1nnnc1C(c1cccc2ccccc12)N1CCC(n2c(=O)[nH]c3ccccc32)CC1 (stereo not drawn),inactive: -1.98%
23,CC(C)(C)OC(=O)N1CCC(N(C(=O)c2ccccc2)c2ccc(Cl)cc2)CC1,inactive: -0.062%
24,N#Cc1ccc(C(=O)NCC2(N3CCCCC3)CCCCC2)cc1,inactive: -2.57%
25,COc1ccc(C(c2nnnn2C2CCCCC2)N2CCC(n3c(=O)[nH]c4ccccc43)CC2)cc1 (stereo not drawn),inactive: 2.73%

row,Compound,activity (quench increase)
1,CC(C)(C)n1nnnc1C(c1ccnc2ccccc12)N1CCC(n2c(=O)[nH]c3ccccc32)CC1 (stereo not drawn),inactive: 4.5%
2,Cc1ccccc1NC1(C#N)CCN(Cc2ccccc2)CC1,inactive: 3.71%
3,CN(C)c1ccc(C(=O)NCC2(N3CCCCC3)CCCCC2)cc1,inactive: -4.43%
4,Cn1c(=O)[nH]cc(N(CCCl)CCCl)c1=O,inactive: 1.67%
5,O=C(NCC1(N2CCCCC2)CCCCC1)c1ccco1,inactive: 1.66%
6,COc1cc(OC)cc(C(=O)NCC2(N3CCCCC3)CCCCC2)c1,inactive: 0.902%
7,O=c1[nH]c2ccccc2n1C1CCN(C(c2ccnc3ccccc23)c2nnnn2C2CCCCC2)CC1 (stereo not drawn),inactive: -0.676%
8,CCC(c1nnnn1C1CCCCC1)N1CCC(n2c(=O)[nH]c3ccccc32)CC1 (stereo not drawn),inactive: 0.132%
9,COc1cccc(C(c2nnnn2C2CCCCC2)N2CCC(n3c(=O)[nH]c4ccccc43)CC2)c1OC (stereo not drawn),inactive: -1.74%
10,CC(=O)N(c1ccccc1)C1CCNCC1,inactive: 2.24%
11,Cc1ccc(NC2(C#N)CCN(Cc3ccccc3)CC2)cc1,inactive: -7.16%
12,Fc1ccccc1NC1CCN(Cc2ccccc2)CC1,inactive: -0.615%
13,Cc1ccc(C(=O)NCC2(N3CCCCC3)CCCCC2)o1,inactive: 0.384%
14,COc1cc(OC)cc(C(=O)NCC2(N3CCOCC3)CCCCC2)c1,inactive: -0.959%
15,COc1cccc(C(c2nnnn2C2CCCC2)N2CCC(n3c(=O)[nH]c4ccccc43)CC2)c1OC (stereo not drawn),inactive: 0.363%
16,COc1cccc(C(=O)N(c2cc(C)cc(C)c2)C2CCN(C(=O)OC(C)(C)C)CC2)c1,inactive: 0.032%
17,CN1CCC(Nc2ccc(Cl)cc2)CC1,inactive: 0.154%
18,CN1CCC(Nc2ccc(F)c(Cl)c2)CC1,inactive: -1.8%
19,O=c1[nH]c2ccccc2n1C1CCN(C(c2cc3ccccc3o2)c2nnnn2C2CCCC2)CC1 (stereo not drawn),inactive: -2.14%
20,CCCOc1ccc(C(=O)NCC2(N(C)C)CCCCC2)cc1,inactive: -2.23%
21,O=C(O)C1(Nc2ccccc2)CCN(Cc2ccccc2)CC1,inactive: -0.355%
22,NN(c1ccccc1)C1CCN(CCc2ccccc2)CC1,inactive: -4.79%
23,CC(C)(C)OC(=O)N1CCC(Nc2ccccc2)CC1,inactive: 0.495%
